Source: publication PMC11860776 (Viruses, 2025)

Molecular target: GST-mIMPα2ΔIBB, mouse importin α2 devoid of the autoinhibitory IMPβ binding domain (residues 70-529) (mouse, UniProt P52293 70-529)
Experiment: AlphaScreen or HTRF
Settings: both partners purified

B1: Simian Virus (SV)40 Large Tumor Antigen (LTA) NLS wt peptide (peptide)
peptide: SQHSTPPKKKRKV
modifications: biotin at the N-terminus
notes: source: synthetic peptide, bought: Genscript
- Kd: ~5 nM
